The values that follow come from BindingDB's records for doi:10.1016/0006-8993(87)90040-0 (St, Marianna University School of Medicine, 1987).

Amino acid sequences for entries named in this document (tags omitted).
UniProt P61169, whole entry: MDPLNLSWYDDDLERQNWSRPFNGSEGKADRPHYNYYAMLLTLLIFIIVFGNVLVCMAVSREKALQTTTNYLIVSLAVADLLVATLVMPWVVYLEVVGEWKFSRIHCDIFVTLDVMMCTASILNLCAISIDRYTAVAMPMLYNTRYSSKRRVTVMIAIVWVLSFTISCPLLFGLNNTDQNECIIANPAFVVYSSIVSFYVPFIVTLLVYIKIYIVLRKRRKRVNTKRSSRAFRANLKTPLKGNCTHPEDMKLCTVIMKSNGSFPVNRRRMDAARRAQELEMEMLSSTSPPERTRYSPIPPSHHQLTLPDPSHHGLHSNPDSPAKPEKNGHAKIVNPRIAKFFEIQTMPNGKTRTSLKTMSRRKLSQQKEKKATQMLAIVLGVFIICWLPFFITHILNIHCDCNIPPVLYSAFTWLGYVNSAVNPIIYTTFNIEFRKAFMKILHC

pKi: −log10 of the molar value. Structures can show the parent of a compound that is named as a salt.

Broadly, the pKi is the negative decadic logarithm of the Ki, by convention in mol/L. A higher pKi goes with a small Ki.

For the assay, the target named is D(2) dopamine receptor (Rattus norvegicus, UniProt P61169).
Turning to `CN1CCc2cccc3c2[C@H]1Cc1ccc(O)c(O)c1-3` [APOKYN], the pKi is 7.57.

Consider `CCN(CC)CCNC(=O)c1cc(Cl)c(N)cc1OC` [4-amino-5-chloro-N-[2-(diethylamino)ethyl]-2-methoxy-benzamide;hydrochloride], for which the pKi was 7.72.

With `CN1CCN2c3ccccc3Cc3ccccc3[C@H]2C1` [MIANSERIN (+)], the pKi is 6.06. Compared with the last molecule, the pKi is 1.66 log units lower.
